The experiment addresses T1, Aβ40 fibrils (Homo sapiens, UniProt P05067).
T1 construct: mixed with Aβ40 fibrils (5 μM) incubated in Tris pH 8.0 (A) or PB pH 7.4 (B)
Description: Dissociation constant (binding affinity) for Aβ40 fibrils. As to the method: Quantitative assessment of OPE sensor performance towards A1340 fibrils at a 5 to 1 protein to sensor molar ratio was analyzed by calculating an amyloid detector factor using the equation shown in FIG. 13, where F(dye-in-buffer), F(dye+fibrils) and F(dye+monomers) are the integrated emission intensities for sensor alone, sensor in the presence of fibrils, and sensor in the presence of monomers, respectively. Using this equation, positive ADF values indicate selective sensing of fibrils over monomers, while negative ADF values indicate selective sensing of monomers. ADF values close to zero indicate no selective sensing.

Amino acid sequences for entries named in this document (tags omitted). Residues count along the entry.
UniProt P05067, 672-711 limits assumed: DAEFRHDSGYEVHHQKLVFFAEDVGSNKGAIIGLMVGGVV

Where two headings read alike, the source gives them in different places.

Regarding `Cc1ccc2c(c1)sc(-c1ccc(N(C)C)cc1)[n+]2C.[Cl-]` [ThT, thioflavin T, reference compound], the Kd came to 5.1 µM (Aβ40 fibrils produced in pH 7.4 PB, read-out: KD (Dissociation Constant), Aβ40 in PB) and 2.7 µM (Aβ40 fibrils produced in pH 8.0 Tris, read-out: KD (Dissociation Constant), Aβ40 in Tris).

Values taken from US11759520B1, “Theranostics for protein misfolding diseases” (UNM Rainforest Innovations, priority 2018, dated 2023).
